This is a selection; strong and weak results do not stand in their true shares. Inconclusive results are not listed. The source made the active and inactive calls. The call rests on the fitted dose curve; in most records, active means well fitted inhibition curve with a large enough effect; inconclusive means small, poorly fitted or top-dose-only effect; inactive means flat fitted curve, though single readings scatter.
Potency means the concentration at half of the fitted maximal effect.

Sequences of proteins named here, by UniProt entry; tags and fusion partners are left off. A change or cut given only in a name is not applied to a line headed by its entry.
UniProt Q8IUX4: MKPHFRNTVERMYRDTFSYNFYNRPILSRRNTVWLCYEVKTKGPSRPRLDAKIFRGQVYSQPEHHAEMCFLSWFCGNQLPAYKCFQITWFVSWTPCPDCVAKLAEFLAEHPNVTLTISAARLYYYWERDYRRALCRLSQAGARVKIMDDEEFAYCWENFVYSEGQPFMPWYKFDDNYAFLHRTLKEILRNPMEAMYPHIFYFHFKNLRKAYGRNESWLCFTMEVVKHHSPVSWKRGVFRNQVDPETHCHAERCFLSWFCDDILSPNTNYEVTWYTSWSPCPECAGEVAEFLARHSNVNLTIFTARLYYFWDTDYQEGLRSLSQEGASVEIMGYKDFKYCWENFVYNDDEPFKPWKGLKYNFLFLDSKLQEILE

The target in this experiment is DNA dC->dU-editing enzyme APOBEC-3F (Homo sapiens) (UniProt Q8IUX4). The experiment can be described thus: qHTS for inhibitors of Vif-A3F interactions: Cherry picks. Further: nearly all actives have a fitted effect of over 70% in size. To be noted: HeLa A3F-eYFP + Vif (tagged APOBEC3F with the HIV-1 protein that degrades it), eYFP fluorescence, 24 h. The text has this: The recent discovery and characterization of host restriction factors, which provide a potent defense to invading retroviruses, has provided new targets for antiviral drug development. APOBEC3G (A3G) and APOBEC3F (A3F) are potent cytidine deaminases that block HIV-1 replication; HIV-1 expresses the Vif protein, which counteracts A3G and A3F by binding to them and inducing their proteasomal degradation. The Vif-A3G and Vif-A3F interactions provide two potential targets for development of small molecules which can interfere with the ability of Vif to degrade A3G or A3F. […] To identify inhibitors that can interfere with Vif mediated degradation of A3G and A3F, we have developed Hela cell lines that stably express A3G or A3F tagged with eYFP at the C-terminal end (A3G-eYFP or A3F-eYFP, respectively) and Vif. In the absence of an inhibitor, Vif induces degradation of A3G-eYFP and A3F-eYFP, and the cells are not fluorescent. In the presence of an inhibitor, it is expected that Vif will be unable to degrade A3G-eYFP and/or A3F-eYFP, resulting in an increase in yellow fluorescence. […]
A3F-Vif cells were harvested from T225 flask and resuspended in phenol free OPTI-MEM medium with 5% FBS. […] After that, the plates were measured on Acumen Explorer (TTP Lab Tech). The fluorescence was detected by 488 nm/Ex and […].
Regarding `CC[n+]1c(/C=C/N(C)c2ccccc2)oc2ccccc21`, the Potency was active: 7.31 µM.

For the origin of these results see PubChem BioAssay AID651814 (National Center for Advancing Translational Sciences (NCATS), 2012).
